Earlier results on 1 substance are cited in patent EP1464341B1, “Ubiquinone-containing water-soluble formulation for ophthalmic use” (Visufarma S.p.A, priority 2003, dated 2004).

The conditions of the data set: even for a very long time; cited from earlier work.

In the case of “d-Alpha-tocopheryl polyethylene glycol 1000-succinate [vitamin E TPGS]”, the “stability (hydrolysis when stored)” value was “undergoes no hydrolysis when stored”.
